Experimental data from ChEMBL document CHEMBL1126757, “Benzoquinazoline inhibitors of thymidylate synthase: enzyme inhibitory activity and cytotoxicity of some 3-amino- and 3-methylbenzo[f]quinazolin-1(2H)-ones” (J Med Chem, 1993).

Test system: Thymidylate synthase (Bos taurus)
Assay: Tested against thymidylate synthase (TS) in calf thymus at 59 uM

Nc1nc(O)c2c(n1)CCc1c-2ccc2ccccc12
inhibition: 19%
